# From PMC11066876, “Late-Stage Saturation of Drug Molecules” (Journal of the American Chemical Society, 2024)
# Assay: High-throughput (direct-to-biology) human liver microsomal stability assay
# Conditions: human liver microsomes
substance,measurement,setting,value
Boc-Maprotiline,%Change After 60 min,%remaining after LSS minus before LSS at 60 min,-7.24%
same,%Remaining Before LSS 0 min,"pure unsaturated drug, 0 min",100%
same,%Remaining Before LSS 15 min,"pure unsaturated drug, 15 min",71.56%
same,%Remaining Before LSS 30 min,"pure unsaturated drug, 30 min",59.39%
same,%Remaining Before LSS 60 min,"pure unsaturated drug, 60 min",45.29%
